Molecular target: Serotonin 2 (5-HT2) receptor (Rattus norvegicus, UniProt P30994+P08909+P14842)
Test: Displacement of [3H]ketanserin from rat prefrontal cortex 5-hydroxytryptamine 2 receptor
Format: tissue-based

Chains of the proteins cited; added tags and fusions are not shown. Lines headed by an entry give the natural chain unless they say otherwise; changes in a name come on top.
UniProt P30994: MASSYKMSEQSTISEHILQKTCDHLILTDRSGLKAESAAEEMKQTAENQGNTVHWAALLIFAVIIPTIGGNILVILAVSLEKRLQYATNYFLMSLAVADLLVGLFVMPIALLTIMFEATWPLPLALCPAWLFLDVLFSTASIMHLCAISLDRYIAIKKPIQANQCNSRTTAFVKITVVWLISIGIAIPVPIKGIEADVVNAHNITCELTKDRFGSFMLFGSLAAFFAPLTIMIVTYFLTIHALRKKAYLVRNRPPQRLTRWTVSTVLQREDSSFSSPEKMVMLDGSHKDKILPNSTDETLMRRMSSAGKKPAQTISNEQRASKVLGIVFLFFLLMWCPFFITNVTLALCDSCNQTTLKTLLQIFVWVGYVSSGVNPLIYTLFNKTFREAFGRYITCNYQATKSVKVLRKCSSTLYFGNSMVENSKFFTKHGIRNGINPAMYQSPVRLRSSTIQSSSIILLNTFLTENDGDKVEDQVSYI
UniProt P08909: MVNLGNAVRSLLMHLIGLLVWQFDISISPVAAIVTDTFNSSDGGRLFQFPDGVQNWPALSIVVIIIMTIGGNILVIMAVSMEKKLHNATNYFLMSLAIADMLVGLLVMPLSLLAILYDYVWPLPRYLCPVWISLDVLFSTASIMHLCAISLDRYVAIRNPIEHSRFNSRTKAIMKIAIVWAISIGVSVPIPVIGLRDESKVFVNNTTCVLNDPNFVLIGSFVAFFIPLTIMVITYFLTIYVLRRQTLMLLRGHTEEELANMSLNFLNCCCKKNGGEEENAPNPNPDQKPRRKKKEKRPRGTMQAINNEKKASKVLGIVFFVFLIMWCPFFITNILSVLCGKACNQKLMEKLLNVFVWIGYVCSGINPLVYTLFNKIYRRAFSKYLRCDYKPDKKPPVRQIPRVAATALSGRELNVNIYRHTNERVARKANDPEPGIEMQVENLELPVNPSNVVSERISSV
UniProt P14842: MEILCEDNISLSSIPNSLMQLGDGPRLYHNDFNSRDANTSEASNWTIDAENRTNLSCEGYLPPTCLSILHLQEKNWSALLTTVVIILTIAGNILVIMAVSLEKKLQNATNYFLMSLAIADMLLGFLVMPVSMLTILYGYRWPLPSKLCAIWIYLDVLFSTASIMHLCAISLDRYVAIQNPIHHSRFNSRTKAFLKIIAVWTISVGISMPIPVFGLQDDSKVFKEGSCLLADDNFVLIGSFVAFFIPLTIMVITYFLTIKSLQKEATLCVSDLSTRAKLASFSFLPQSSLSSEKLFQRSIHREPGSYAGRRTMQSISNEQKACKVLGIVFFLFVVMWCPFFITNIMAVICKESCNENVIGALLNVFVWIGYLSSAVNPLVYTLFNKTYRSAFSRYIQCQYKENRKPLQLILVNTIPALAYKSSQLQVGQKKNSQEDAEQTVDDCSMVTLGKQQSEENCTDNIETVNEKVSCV

| SMILES | Ki |
| --- | --- |
| COc1ccccc1CC(C)N (racemic) | 8.13 µM |
| COc1cc(CC(C)N)c(OC)cc1Br (racemic) [BROLAMFETAMINE] | 0.063 µM |

Reference: ChEMBL document CHEMBL1123393, “5-HT1 and 5-HT2 binding characteristics of 1-(2,5-dimethoxy-4-bromophenyl)-2-aminopropane analogues” (J Med Chem, 1986)
